In PubChem BioAssay AID2302 (GlaxoSmithKline (GSK), 2010) one finds growth inhibition data, which are given here for one compound.

Only a part is listed here, and it is no random draw. The source made the active and inactive calls.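 How the source made its calls: active means growth inhibition above 50% at the single 2 µM test dose, taken to imply half-maximal potency below 2 µM; inactive means the rest.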

This experiment is described as follows: antimalarial activity against Dd2 strain (AID 2302).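 Further: 0% = DMSO untreated growth and 100% = chloroquine plus artemisinin killed control.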 Particulars: P. falciparum Dd2 in RBCs, LDH growth readout, 72 h; at 2 µM; stronger effect = higher value.
As for `COc1cc(C(=O)NC(SC2=NCCS2)C(Cl)(Cl)Cl)cc(OC)c1OC` (stereo unspecified), the growth inhibition was active: 50%.
